Drawing on PubChem BioAssay AID485360 (National Center for Advancing Translational Sciences (NCATS), 2010), this text covers Potency for one compound.

Protein sequences, listed by entry. Tags and fused reporters are not part of them. Lines headed by an entry give the natural chain unless they say otherwise; changes in a name come on top.
UniProt Q9Y468: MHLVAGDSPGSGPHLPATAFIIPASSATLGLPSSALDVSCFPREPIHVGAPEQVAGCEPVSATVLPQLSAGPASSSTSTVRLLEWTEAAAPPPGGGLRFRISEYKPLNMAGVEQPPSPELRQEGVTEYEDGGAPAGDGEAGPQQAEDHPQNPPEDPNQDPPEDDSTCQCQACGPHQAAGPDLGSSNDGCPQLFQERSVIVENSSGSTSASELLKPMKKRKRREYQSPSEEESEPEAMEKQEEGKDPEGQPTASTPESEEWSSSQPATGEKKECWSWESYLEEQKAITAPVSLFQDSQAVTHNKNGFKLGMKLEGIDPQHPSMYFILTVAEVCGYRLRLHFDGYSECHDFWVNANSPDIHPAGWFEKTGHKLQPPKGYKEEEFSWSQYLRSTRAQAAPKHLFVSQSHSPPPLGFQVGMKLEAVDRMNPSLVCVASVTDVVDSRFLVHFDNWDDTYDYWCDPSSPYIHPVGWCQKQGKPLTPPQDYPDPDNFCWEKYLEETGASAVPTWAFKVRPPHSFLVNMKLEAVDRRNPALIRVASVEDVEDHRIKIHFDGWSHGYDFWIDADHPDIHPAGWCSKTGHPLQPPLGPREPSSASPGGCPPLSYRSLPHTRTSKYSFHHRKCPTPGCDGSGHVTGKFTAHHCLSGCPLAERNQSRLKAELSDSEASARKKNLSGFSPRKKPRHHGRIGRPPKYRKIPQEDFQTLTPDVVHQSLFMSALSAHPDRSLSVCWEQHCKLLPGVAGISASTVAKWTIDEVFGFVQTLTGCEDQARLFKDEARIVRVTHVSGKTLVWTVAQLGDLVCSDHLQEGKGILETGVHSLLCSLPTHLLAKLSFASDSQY

The structures appear in SMILES notation. This is a selection; strong and weak results do not stand in their true shares. Results filed as inconclusive are left out. Activity calls are given as the source filed them. Calls follow the shape of the dose curve; as a rule, active = well fitted inhibition curve with a large enough effect; inconclusive = small, poorly fitted or top-dose-only effect; inactive = no such curve, though single readings can be large or run the other way.
Potency is read from the fitted curve at half-maximal effect.

The target of this assay is Lethal(3)malignant brain tumor-like protein 1 (Homo sapiens) (UniProt Q9Y468). Kind of assay: qHTS Assay for the Inhibitors of L3MBTL1. Also: nearly all actives have a fitted effect of over 60% in size. To be noted: AlphaScreen L3MBTL1–H3K9me1 peptide binding. The source says:
The histone code is comprised of many post-translational modifications that occur mainly in histone tail peptides. The identity and location of these marks are read by a variety of histone binding proteins that are emerging as important regulators of cellular differentiation and development and are increasingly being implicated in numerous disease states. Small molecule probes that disrupt the interaction between histone binding proteins and chromatin would enable a systematic chemical biology study of proteins that read the histone code and could potentially reveal new targets for drug discovery. However, no such small molecules are known. This dearth of quality molecular probes can largely be attributed to the novelty of the target class and the lack of screening assays. This proposal details the development of the first high-throughput screening assay for the discovery of inhibitors of methyl-lysine binding proteins and how it can be be used to initiate a full-scale discovery effort for antagonists of histone binding proteins. […]
To each well, 2 uL of L3MBTL1 protein (final 50 nM) and 1 uL biotinylated histone peptide monomethylated at Lys9 [b-AHA-H3(1-15)K9me1] […] Microplates were then be read on an EnVision multilabel plate reader using the 1,536 plate HTS AlphaScreen aperture (excitation time 80 ms, measurement time 240 ms).
As to `CC(CCC(C)C(C)(C)C)[C@@H]1CC[C@H]2C3C[C@H](OS(O)(=S)=S)[C@H]4C[C@H](OS(O)(=S)=S)[C@@H](OS(O)(=S)=S)C[C@]4(C)[C@H]3CC[C@]12C` (stereo partly specified) (tested in a mixture with another compound), the Potency is active: 31.6 µM.
